For 14 compounds, IC50 results are on record in patent publication US20140377219A1, “HIV INHIBITORS” (New york Blood Center, Inc., priority 2011, published 2014).

Structures can show the parent of a compound that is named as a salt. Where two headings read alike, the source gives them in different places.

Experiment [1] concerns NL4-3-HXB2-Luc pseudotyped virus expressing Env of the HIV-1HxB2 (X4). Conditions: read-out: TZM-bl cells IC50 (μM ± SD), single-cycle assay.
Experiment [2] has the same test system. As to the kind of experiment: microbe, parasite or virus in culture. Conditions: Human immunodeficiency virus 1, HXB2|NL43, TZM-bl, read-out: TZM-bl cells IC50 (μM ± SD).

By IC50 is commonly meant the concentration that inhibits the measured activity by half. For `Cc1nc(C(NC(=O)C(=O)Nc2ccc(Cl)cc2)C2CCNCC2)sc1CCO` (centres unmarked) [Compound 11, N^1-(4-chlorophenyl)-N^2-((5-(2-hydroxyethyl)-4-methylthiazol-2-yl)(piperidin-4-yl)methyl)oxalamide.2HCl], in experiment [1], the IC50 was determined as 1 ± 0.8 µM.
Same read-out and setting: as for `Cc1nc(C(NC(=O)C(=O)NC2CCCCCC2)C2CCCCN2)sc1CO` (centres unmarked) [Compound 29, N^1-cycloheptyl-N^2-((5-(hydroxymethyl)-4-methylthiazol-2-yl)(piperidin-2-yl)methyl)oxalamide.HCl], the figure is more than 90 µM; as for `Cc1nc(C(NC(=O)C(=O)Nc2ccc(F)c(Cl)c2)C2CCCCN2)sc1CCO.Cl.Cl` (centres unmarked) [Compound 35, N^1-(3-chloro-4-fluorophenyl)-N^2-((5-(2-hydroxyethyl)-4-methylthiazol-2-yl)(piperidin-2-yl)methyl)oxalamide.2HCl], 9 ± 1 µM.
On the same count and under the same terms, as for `Cc1nc(C(NC(=O)CCC(=O)Nc2ccc(Cl)cc2)C2CCCN2)sc1CO` (centres unmarked) [Compound 41, N^1-(4-chlorophenyl)-N^4-((5-(hydroxymethyl)-4-methylthiazol-2-yl)(pyrrolidin-2-yl)methyl)succinamide.HCl], the figure is more than 42 µM.
As to `O=C(CCC(=O)Nc1ccc(Cl)cc1)NCc1ccc(S(=O)(=O)N2CCOCC2)cc1` [Compound 42, N^1-(4-chlorophenyl)-N^4-(4-(morpholinosulfonyl)benzyl)succinamide], the IC50 in experiment [2] is 15.7 ± 3.1 µM.
Take `O=C(CCC(=O)Nc1ccc(Cl)cc1)NCCCN1CCCC(O)C1` (centres unmarked) [Compound 43, N^1-(4-chlorophenyl)-N^4-(3-(3-hydroxypiperidin-1-yl)propyl)succinamide]: the IC50 in experiment [2] was 16.5 ± 1.4 µM.
Same read-out and setting: under `O=C(CCC(=O)Nc1ccc(Cl)cc1)NCCCN1CCC(O)CC1` [Compound 44, N^1-(4-chlorophenyl)-N^4-(3-(4-hydroxypiperidin-1-yl)propyl)succinamide] stands 26.3 ± 3.6 µM; under `CC1CCCN(c2ccccc2CNC(=O)CCC(=O)Nc2ccc(Cl)cc2)C1` (centres unmarked) [Compound 45, N^1-(4-chlorophenyl)-N^4-(2-(3-methylpiperidin-1-yl)benzyl)succinamide], more than 97 µM; under `CCC(CN1CCOCC1)NC(=O)CCC(=O)Nc1ccc(Cl)cc1` (centres unmarked) [Compound 46, N^1-(4-chlorophenyl)-N^4-(1-morpholinobutan-2-yl)succinamide], more than 109 µM.
On to `CN1CCN(C(=O)CNC(=O)CCC(=O)Nc2ccc(Cl)cc2)CC1` [Compound 47, N^1-(4-chlorophenyl)-N^4-(2-(4-methylpiperazin-1-yl)-2-oxoethyl)succinamide .HCOOH], for which the half-maximal inhibitory concentration (IC50) in experiment [1] was found to be 9 ± 0.4 µM.
Still for that read-out and setting: under `CC(C)c1nccn1CCCNC(=O)CCC(=O)Nc1ccc(Cl)cc1` [Compound 48, N^1-(4-chlorophenyl)-N^4-(3-(2-isopropyl-1H-imidazol-1-yl)propyl)succinamide. HCOOH] stands approximately 71 µM; under `Cc1nccn1CCCNC(=O)CCC(=O)Nc1ccc(Cl)cc1` [Compound 49, N^1-(4-chlorophenyl)-N^4-(3-(2-methyl-1H-imidazol-1-yl)propyl)succinamide. HCOOH], 39.3 ± 4.2 µM.
`Cc1nc2ncccn2c1CN1CCC(NC(=O)CCC(=O)Nc2ccc(Cl)cc2)CC1` [Compound 50, N^1-(4-chlorophenyl)-N^4-(1-((2-methylimidazo[1,2-a]pyrimidin-3-yl)methyl)piperidin-4-yl)succinamide]: the half-maximal inhibitory concentration (IC50) in experiment [2] was more than 88 µM.
Take `Cc1nc(C(NC(=O)CCC(=O)Nc2ccc(Cl)cc2)C2CCCCN2)sc1CO.Cl` (centres unmarked) [Compound 51, N^1-(4-chlorophenyl)-N^4-((5-(hydroxymethyl)-4-methylthiazol-2-yl)(piperidin-2-yl)methyl)succinamide.HCl]: the concentration for half-maximal inhibition (IC50) in experiment [1] is approximately 20 µM.
